± gives the uncertainty stated by the source.
Assay: xn = mol fraction of the nth substance listed

CCCCOCCCC + CCOC(=O)OCC
viscosity (303.15 K, 100 kPa, x2 = 0.1008): 0.603 ± 0.013 mPa·s | viscosity (303.15 K, 100 kPa, x2 = 0.197): 0.603 ± 0.013 mPa·s | viscosity (303.15 K, 100 kPa, x2 = 0.3057): 0.606 ± 0.013 mPa·s | viscosity (303.15 K, 100 kPa, x2 = 0.4036): 0.611 ± 0.013 mPa·s | viscosity (303.15 K, 100 kPa, x2 = 0.5): 0.618 ± 0.013 mPa·s | viscosity (303.15 K, 100 kPa, x2 = 0.6003): 0.628 ± 0.013 mPa·s | viscosity (303.15 K, 100 kPa, x2 = 0.7012): 0.64 ± 0.013 mPa·s | viscosity (303.15 K, 100 kPa, x2 = 0.8002): 0.657 ± 0.014 mPa·s | viscosity (303.15 K, 100 kPa, x2 = 0.9007): 0.676 ± 0.014 mPa·s | viscosity (308.15 K, 100 kPa, x2 = 0.1008): 0.563 ± 0.012 mPa·s | viscosity (308.15 K, 100 kPa, x2 = 0.197): 0.562 ± 0.012 mPa·s | viscosity (308.15 K, 100 kPa, x2 = 0.3057): 0.566 ± 0.012 mPa·s | viscosity (308.15 K, 100 kPa, x2 = 0.4036): 0.571 ± 0.012 mPa·s | viscosity (308.15 K, 100 kPa, x2 = 0.5): 0.578 ± 0.012 mPa·s | viscosity (308.15 K, 100 kPa, x2 = 0.6003): 0.588 ± 0.012 mPa·s | viscosity (308.15 K, 100 kPa, x2 = 0.7012): 0.6 ± 0.013 mPa·s | viscosity (308.15 K, 100 kPa, x2 = 0.8002): 0.616 ± 0.013 mPa·s | viscosity (308.15 K, 100 kPa, x2 = 0.9007): 0.636 ± 0.013 mPa·s | viscosity (313.15 K, 100 kPa, x2 = 0.1008): 0.524 ± 0.011 mPa·s | viscosity (313.15 K, 100 kPa, x2 = 0.197): 0.525 ± 0.011 mPa·s | viscosity (313.15 K, 100 kPa, x2 = 0.3057): 0.528 ± 0.011 mPa·s | viscosity (313.15 K, 100 kPa, x2 = 0.4036): 0.533 ± 0.011 mPa·s | viscosity (313.15 K, 100 kPa, x2 = 0.5): 0.541 ± 0.011 mPa·s | viscosity (313.15 K, 100 kPa, x2 = 0.6003): 0.551 ± 0.012 mPa·s | viscosity (313.15 K, 100 kPa, x2 = 0.7012): 0.563 ± 0.012 mPa·s | viscosity (313.15 K, 100 kPa, x2 = 0.8002): 0.578 ± 0.012 mPa·s | viscosity (313.15 K, 100 kPa, x2 = 0.9007): 0.598 ± 0.013 mPa·s

CCCCOCCCC + Cc1ccc(C)cc1
viscosity (298.15 K, 101.32 kPa, x1 = 0.055): 0.612 ± 0.005 mPa·s | viscosity (298.15 K, 101.32 kPa, x1 = 0.1513): 0.614 ± 0.005 mPa·s | viscosity (298.15 K, 101.32 kPa, x1 = 0.2503): 0.617 ± 0.005 mPa·s | viscosity (298.15 K, 101.32 kPa, x1 = 0.3493): 0.621 ± 0.005 mPa·s | viscosity (298.15 K, 101.32 kPa, x1 = 0.4516): 0.626 ± 0.005 mPa·s | viscosity (298.15 K, 101.32 kPa, x1 = 0.5033): 0.629 ± 0.005 mPa·s | viscosity (298.15 K, 101.32 kPa, x1 = 0.5712): 0.633 ± 0.005 mPa·s | viscosity (298.15 K, 101.32 kPa, x1 = 0.628): 0.637 ± 0.005 mPa·s | viscosity (298.15 K, 101.32 kPa, x1 = 0.7507): 0.641 ± 0.005 mPa·s | viscosity (298.15 K, 101.32 kPa, x1 = 0.8517): 0.644 ± 0.005 mPa·s | viscosity (298.15 K, 101.32 kPa, x1 = 0.9496): 0.643 ± 0.005 mPa·s | viscosity (308.15 K, 101.32 kPa, x1 = 0.055): 0.54 ± 0.005 mPa·s | viscosity (308.15 K, 101.32 kPa, x1 = 0.1513): 0.543 ± 0.005 mPa·s | viscosity (308.15 K, 101.32 kPa, x1 = 0.2503): 0.549 ± 0.005 mPa·s | viscosity (308.15 K, 101.32 kPa, x1 = 0.3493): 0.554 ± 0.005 mPa·s | viscosity (308.15 K, 101.32 kPa, x1 = 0.4516): 0.561 ± 0.005 mPa·s | viscosity (308.15 K, 101.32 kPa, x1 = 0.5033): 0.565 ± 0.005 mPa·s | viscosity (308.15 K, 101.32 kPa, x1 = 0.5712): 0.571 ± 0.005 mPa·s | viscosity (308.15 K, 101.32 kPa, x1 = 0.628): 0.575 ± 0.005 mPa·s | viscosity (308.15 K, 101.32 kPa, x1 = 0.7507): 0.583 ± 0.005 mPa·s | viscosity (308.15 K, 101.32 kPa, x1 = 0.8517): 0.587 ± 0.005 mPa·s | viscosity (308.15 K, 101.32 kPa, x1 = 0.9496): 0.589 ± 0.005 mPa·s

CCCCOCCCC + Cc1ccccc1
viscosity (298.15 K, 101.32 kPa, x1 = 0.0549): 0.554 ± 0.005 mPa·s | viscosity (298.15 K, 101.32 kPa, x1 = 0.1507): 0.561 ± 0.005 mPa·s | viscosity (298.15 K, 101.32 kPa, x1 = 0.249): 0.567 ± 0.005 mPa·s | viscosity (298.15 K, 101.32 kPa, x1 = 0.351): 0.574 ± 0.005 mPa·s | viscosity (298.15 K, 101.32 kPa, x1 = 0.4355): 0.58 ± 0.005 mPa·s | viscosity (298.15 K, 101.32 kPa, x1 = 0.4982): 0.586 ± 0.005 mPa·s | viscosity (298.15 K, 101.32 kPa, x1 = 0.5113): 0.588 ± 0.005 mPa·s | viscosity (298.15 K, 101.32 kPa, x1 = 0.6473): 0.601 ± 0.005 mPa·s | viscosity (298.15 K, 101.32 kPa, x1 = 0.7525): 0.612 ± 0.005 mPa·s | viscosity (298.15 K, 101.32 kPa, x1 = 0.8513): 0.625 ± 0.005 mPa·s | viscosity (298.15 K, 101.32 kPa, x1 = 0.9539): 0.635 ± 0.005 mPa·s | viscosity (308.15 K, 101.32 kPa, x1 = 0.0549): 0.502 ± 0.005 mPa·s | viscosity (308.15 K, 101.32 kPa, x1 = 0.1507): 0.508 ± 0.005 mPa·s | viscosity (308.15 K, 101.32 kPa, x1 = 0.249): 0.514 ± 0.005 mPa·s | viscosity (308.15 K, 101.32 kPa, x1 = 0.351): 0.52 ± 0.005 mPa·s | viscosity (308.15 K, 101.32 kPa, x1 = 0.4355): 0.527 ± 0.005 mPa·s | viscosity (308.15 K, 101.32 kPa, x1 = 0.4982): 0.533 ± 0.005 mPa·s | viscosity (308.15 K, 101.32 kPa, x1 = 0.5113): 0.534 ± 0.005 mPa·s | viscosity (308.15 K, 101.32 kPa, x1 = 0.6473): 0.548 ± 0.005 mPa·s | viscosity (308.15 K, 101.32 kPa, x1 = 0.7525): 0.56 ± 0.005 mPa·s | viscosity (308.15 K, 101.32 kPa, x1 = 0.8513): 0.572 ± 0.005 mPa·s | viscosity (308.15 K, 101.32 kPa, x1 = 0.9539): 0.585 ± 0.005 mPa·s

CCCCOCCCC + c1ccccc1
viscosity (298.15 K, 101.32 kPa, x1 = 0.0544): 0.602 ± 0.005 mPa·s | viscosity (298.15 K, 101.32 kPa, x1 = 0.1492): 0.602 ± 0.005 mPa·s | viscosity (298.15 K, 101.32 kPa, x1 = 0.2502): 0.601 ± 0.005 mPa·s | viscosity (298.15 K, 101.32 kPa, x1 = 0.3554): 0.603 ± 0.005 mPa·s | viscosity (298.15 K, 101.32 kPa, x1 = 0.4494): 0.605 ± 0.005 mPa·s | viscosity (298.15 K, 101.32 kPa, x1 = 0.5006): 0.608 ± 0.005 mPa·s | viscosity (298.15 K, 101.32 kPa, x1 = 0.5508): 0.609 ± 0.005 mPa·s | viscosity (298.15 K, 101.32 kPa, x1 = 0.6458): 0.614 ± 0.005 mPa·s | viscosity (298.15 K, 101.32 kPa, x1 = 0.7543): 0.622 ± 0.005 mPa·s | viscosity (298.15 K, 101.32 kPa, x1 = 0.854): 0.629 ± 0.005 mPa·s | viscosity (298.15 K, 101.32 kPa, x1 = 0.9502): 0.637 ± 0.005 mPa·s | viscosity (308.15 K, 101.32 kPa, x1 = 0.0544): 0.526 ± 0.005 mPa·s | viscosity (308.15 K, 101.32 kPa, x1 = 0.1492): 0.528 ± 0.005 mPa·s | viscosity (308.15 K, 101.32 kPa, x1 = 0.2502): 0.529 ± 0.005 mPa·s | viscosity (308.15 K, 101.32 kPa, x1 = 0.3554): 0.533 ± 0.005 mPa·s | viscosity (308.15 K, 101.32 kPa, x1 = 0.4494): 0.537 ± 0.005 mPa·s | viscosity (308.15 K, 101.32 kPa, x1 = 0.5006): 0.54 ± 0.005 mPa·s | viscosity (308.15 K, 101.32 kPa, x1 = 0.5508): 0.543 ± 0.005 mPa·s | viscosity (308.15 K, 101.32 kPa, x1 = 0.6458): 0.55 ± 0.005 mPa·s | viscosity (308.15 K, 101.32 kPa, x1 = 0.7543): 0.56 ± 0.005 mPa·s | viscosity (308.15 K, 101.32 kPa, x1 = 0.854): 0.571 ± 0.005 mPa·s | viscosity (308.15 K, 101.32 kPa, x1 = 0.9502): 0.583 ± 0.005 mPa·s

From the CheMixHub viscosity set
